The numbers were not newly measured in patent publication US6383762B1, “Methods of obtaining compounds that interact with a human serotonin (5-HT2) receptor” (Synaptic Pharmaceutical Corporation, priority 1989, dated 2002), which cites them from elsewhere.

Chains of the proteins cited; added tags and fusions are not shown.
UniProt P14842, whole entry: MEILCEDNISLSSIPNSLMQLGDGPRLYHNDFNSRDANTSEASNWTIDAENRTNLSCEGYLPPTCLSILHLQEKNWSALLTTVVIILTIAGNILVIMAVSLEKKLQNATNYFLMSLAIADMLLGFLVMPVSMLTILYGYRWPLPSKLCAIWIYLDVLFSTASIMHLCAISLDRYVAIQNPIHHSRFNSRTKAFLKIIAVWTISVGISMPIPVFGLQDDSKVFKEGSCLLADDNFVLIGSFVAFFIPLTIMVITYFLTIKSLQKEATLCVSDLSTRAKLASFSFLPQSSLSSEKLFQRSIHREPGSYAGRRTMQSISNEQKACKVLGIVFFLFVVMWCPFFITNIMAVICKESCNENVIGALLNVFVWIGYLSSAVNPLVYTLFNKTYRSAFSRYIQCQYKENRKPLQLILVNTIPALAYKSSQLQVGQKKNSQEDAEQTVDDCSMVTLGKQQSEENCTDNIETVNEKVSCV

This series concerns the target T1, 5-HT2 receptor in rat cortical membranes (Rattus norvegicus, UniProt P14842).
T1 construct: rather than in rat cortical membranes; host or cells: rat cortical membranes
The note with it: rat cortex; Hoyer et al. 1986; cited from earlier work.

As usually defined, the Ki is a measure of affinity in units of concentration, obtained from inhibition or displacement. Consider `Cc1nc2sccn2c(=O)c1CCN1CCC(=C(c2ccc(F)cc2)c2ccc(F)cc2)CC1` [RITANSERIN], for which the Ki was 7.2 nM.
